The target of one experiment is T1, μ-opioid receptor (Homo sapiens, UniProt P35372).
T1 construct: expressed in transfected cells; host or cells: CHO cells
It is filed as binding. The note with it: read-out: Ki (nM) ± SEM, μ.

Amino acid sequences for entries named in this document (tags omitted). A change or cut given only in a name is not applied to a line headed by its entry.
UniProt P35372, whole entry: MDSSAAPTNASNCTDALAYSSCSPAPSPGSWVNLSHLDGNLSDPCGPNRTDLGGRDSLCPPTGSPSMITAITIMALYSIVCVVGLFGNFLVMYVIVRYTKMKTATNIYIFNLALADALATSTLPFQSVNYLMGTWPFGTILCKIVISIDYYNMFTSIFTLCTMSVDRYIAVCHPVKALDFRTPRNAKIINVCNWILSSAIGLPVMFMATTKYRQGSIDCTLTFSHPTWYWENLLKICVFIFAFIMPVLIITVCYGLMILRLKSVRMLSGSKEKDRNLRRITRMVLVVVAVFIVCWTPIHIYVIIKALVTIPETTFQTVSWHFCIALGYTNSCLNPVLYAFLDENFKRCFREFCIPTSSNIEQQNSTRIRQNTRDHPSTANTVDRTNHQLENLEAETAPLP
UniProt P41145: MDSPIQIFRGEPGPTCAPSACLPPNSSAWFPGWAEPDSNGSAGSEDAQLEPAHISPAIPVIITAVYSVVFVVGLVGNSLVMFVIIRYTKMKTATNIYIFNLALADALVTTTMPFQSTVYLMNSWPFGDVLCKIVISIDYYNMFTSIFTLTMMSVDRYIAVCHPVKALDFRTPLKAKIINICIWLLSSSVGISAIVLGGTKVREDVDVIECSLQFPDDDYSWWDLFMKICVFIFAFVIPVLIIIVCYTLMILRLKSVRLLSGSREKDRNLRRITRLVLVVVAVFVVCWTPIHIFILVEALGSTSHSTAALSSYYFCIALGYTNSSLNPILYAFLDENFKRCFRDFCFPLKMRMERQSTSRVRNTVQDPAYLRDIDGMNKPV
UniProt P32300, whole entry: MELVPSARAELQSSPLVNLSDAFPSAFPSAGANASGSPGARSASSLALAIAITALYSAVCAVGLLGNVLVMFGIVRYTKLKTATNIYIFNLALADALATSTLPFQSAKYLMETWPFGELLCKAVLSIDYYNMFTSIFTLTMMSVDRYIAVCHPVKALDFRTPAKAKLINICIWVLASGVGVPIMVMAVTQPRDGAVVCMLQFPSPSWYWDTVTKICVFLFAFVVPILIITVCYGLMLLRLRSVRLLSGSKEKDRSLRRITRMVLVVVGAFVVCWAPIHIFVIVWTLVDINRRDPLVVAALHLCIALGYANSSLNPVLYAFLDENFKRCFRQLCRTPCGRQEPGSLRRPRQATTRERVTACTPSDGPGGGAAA

The target in the next experiment is T2, κ-opioid receptor (Homo sapiens, UniProt P41145).
T2 construct: expressed in transfected cells; host or cells: CHO cells
It is filed as binding. Conditions: read-out: Ki (nM) ± SEM, κ.

Experiment [1] deals with T3, δ-opioid receptor (Homo sapiens, UniProt P41143).
T3 construct: expressed in transfected cells; host or cells: CHO cells
It is filed as binding. Conditions: read-out: Ki (nM) ± SEM, δ.

Experiment [2] addresses T4, δ-opioid receptor (Mus musculus, UniProt P32300).
T4 construct: hemagglutinin (HA); expressed in transfected cells
The format is biochemical, human. Conditions: read-out: EC50, δ, stimulation of [35S]GTPγS binding. (GTPγS is a poorly hydrolysed GTP analogue; its binding reports G protein activation.)

As a reminder, the Ki is a measure of affinity in units of concentration, obtained from inhibition or displacement. With `O=C(N[C@@H]1CC[C@@]2(O)[C@H]3Cc4ccc(O)c5c4[C@@]2(CCN3CC2CC2)[C@H]1O5)c1ccc(Br)cc1` [Compound 6, 6-β-(4′-Bromo)benzamido-14-hydroxy-17-(cyclopropylmethyl) nordesmorphine], the Ki on μ-opioid receptor turned out to be 0.88 ± 0.1 nM; at κ-opioid receptor, 0.29 ± 0.04 nM; at δ-opioid receptor [1], 2.2 ± 0.3 nM.

Broadly, the EC50 is the concentration needed to bring the measured effect to its halfway point. As for `O=C(N[C@@H]1CC[C@@]2(O)[C@H]3Cc4ccc(O)c5c4[C@@]2(CCN3CC2CC2)[C@H]1O5)c1ccc(Cl)cc1` [Compound 10, 6-β-(4′-Chloro)benzamido-14-hydroxy-17-(cyclopropylmethyl)nordesmorphine], the EC50 on δ-opioid receptor [2] was determined as 42 ± 3.1 nM. For the same compound, the inhibitory constant (Ki) at δ-opioid receptor [1] is 2.6 ± 0.3 nM.

The record behind these values is patent US8778958B2, “Synthesis of metabolically stable agents for alcohol and drug abuse” (priority 2008, dated 2014).
